The target in this test is T1, Muscarinic M1 (Rattus norvegicus, UniProt P08482).
T1 construct: membranar receptors of various rats organs; from tissue; host or cells: rat cortex, striatum and hippocampus (pool)
The test is described as follows: Affinity for muscarinic M1 ([3H]-pirenzepine). The class given is binding. As to conditions: versus Atropin.

Protein sequences, listed by entry. Tags and fused reporters are not part of them. Lines headed by an entry give the natural chain unless they say otherwise; changes in a name come on top.
UniProt P08482: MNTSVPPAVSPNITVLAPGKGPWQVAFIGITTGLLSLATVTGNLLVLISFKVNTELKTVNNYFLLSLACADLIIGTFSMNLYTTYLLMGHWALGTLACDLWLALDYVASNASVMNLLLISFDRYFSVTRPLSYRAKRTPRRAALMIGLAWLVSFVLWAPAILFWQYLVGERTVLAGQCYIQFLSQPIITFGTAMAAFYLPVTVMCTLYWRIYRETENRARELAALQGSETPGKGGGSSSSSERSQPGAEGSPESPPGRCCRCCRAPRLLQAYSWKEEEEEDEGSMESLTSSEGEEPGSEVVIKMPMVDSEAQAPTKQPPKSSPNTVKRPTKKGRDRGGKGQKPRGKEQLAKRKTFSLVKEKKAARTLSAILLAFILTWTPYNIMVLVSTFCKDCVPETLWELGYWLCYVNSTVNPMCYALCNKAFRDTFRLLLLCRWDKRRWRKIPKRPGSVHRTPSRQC

For the compound `COc1ccc(CN(CCN(C)C)c2ccccn2)cc1` [Mepyramine], the “affinity for muscarinic M1 sites, times weaker than Atropin” value is given as “about 1000 times weaker”.

The values above are taken from patent US5461059A, “Derivatives of terbutylphenyl-1-amino-4-hydroxybutane their preparation processes and the pharmaceutical compositions containing them” (priority 1990, dated 1995).
